Values after ≈ are worked out from the molar mass of the structure shown.
Columns and labels:
[1] = test system: yeast, and filamentous fungi; experiment: Antifungal activity: microbroth dilution (yeasts) and disk diffusion (filamentous fungi); assay type: cell-based; settings: panel of yeast and filamentous fungi (Table 12)
Experimental: Antimicrobial Assays. Susceptibility testing was performed using the microbroth dilution method in 96 round-well microtiter plates following the general guidelines described by the Clinical and Laboratory Standards Institute (CLSI). Compounds were prepared as 50λ of stocks (10 mM) by dissolving in dI H2O. All bacterial strains were grown and assayed in Mueller-Hinton and M9 glucose media (with amendments added as required), and yeast strains in YMM. Overnight cultures were inoculated into 3 mL of fresh growth media following a 1:100 dilution. Upon mid-exponential growth (OD600 0.4-0.6), cultures were diluted to 5×10^6 CFU mL-1 (based on previously determined calibration curves) and used as inoculum into assay plates. Wells contained 100 μL of media with 5×10^5 CFU mL-1 of test organism, and serial ½-dilutions of the test compound (starting with 200 μM). E. coli WM6242 was assayed with induction of the phosphonic acid uptake system including 1 mM IPTG in assay wells. […] Culture densities (OD600) were recorded using a Bio-Rad xMark microplate spectrophotometer after 16 hours for all strains except Bacillus, which were after 24 hours. […]
Antimicrobial Assays. […] Culture densities (OD600) were recorded using a Bio-Rad xMark microplate spectrophotometer after 16 hours for all strains except bacilli, which were recorded after 24 hours. […]

[2] = test system: Paenibacillus larvae NRRL B-2605; experiment: microbe, parasite or virus in culture
Experimental: (§1) Antimicrobial Assays. […] Susceptibility testing was performed using the microbroth dilution method in 96 round-well microtiter plates as previously described [A20]. Compounds were prepared as 50× of stocks (10 Mm) by dissolving in Di H2O. All bacterial strains were grown and assayed M9 glucose media (with amendments added as required), and yeast strains in YMM. Controls wells contained 200 µM kanamycin (for bacteria) or nystatin (for yeasts), no compound addition (vehicle only), and no cell addition (added media instead). Culture densities (OD600) were recorded using a Bio-Rad xMark microplate spectrophotometer after 16 hours for all strains except bacilli, which were recorded after 24 hours. […] MICs values are from triplicate assays performed on separate days. Disk diffusion assays were used to assess antimicrobial activity of the purified compounds against filamentous fungi and against Mycobacterium smegmatis [A20].

[3] = test system: Escherichia coli WM6242; experiment: Microbroth dilution MIC; assay type: cell-based
Experimental: (§2) Antimicrobial Assays. […] Compounds were prepared as 50λ of stocks (10 mM) by dissolving in dI H2O. […] Overnight cultures were inoculated into 3 mL of fresh growth media following a 1:100 dilution. Upon mid-exponential growth (OD600 0.4-0.6), cultures were diluted to 5×10^6 CFU mL-1 (based on previously determined calibration curves) and used as inoculum into assay plates. Wells contained 100 μL of media with 5×10^5 CFU mL-1 of test organism, and serial ½-dilutions of the test compound (starting with 200 μM). E. coli WM6242 was assayed with induction of the phosphonic acid uptake system including 1 mM IPTG in assay wells. […] Microtiter plates were incubated with shaking (220 rpm) at their respective growth temperatures. […] Assays were performed in triplicated on separate independent days. […] Minimum inhibitory concentrations are from triplicate assays performed on separate days.

[4] = test system: Rhodococcus jostii RHA1; experiment: Microbroth dilution MIC; assay type: cell-based
Experimental: (§3) Antimicrobial Assays. Susceptibility testing was performed using the microbroth dilution method in 96 round-well microtiter plates following the general guidelines described by the Clinical and Laboratory Standards Institute (CLSI). Compounds were prepared as 50λ of stocks (10 mM) by dissolving in dI H2O. All bacterial strains were grown and assayed in Mueller-Hinton and M9 glucose media (with amendments added as required), and yeast strains in YMM. Overnight cultures were inoculated into 3 mL of fresh growth media following a 1:100 dilution. Upon mid-exponential growth (OD600 0.4-0.6), cultures were diluted to 5×10^6 CFU mL-1 (based on previously determined calibration curves) and used as inoculum into assay plates. Wells contained 100 μL of media with 5×10^5 CFU mL-1 of test organism, and serial ½-dilutions of the test compound (starting with 200 μM). E. coli WM6242 was assayed with induction of the phosphonic acid uptake system including 1 mM IPTG in assay wells. Controls wells contained 200 µM kanamycin (for bacteria) or nystatin (for yeasts), no compound addition (vehicle only), and no cell addition (added media instead). Microtiter plates were incubated with shaking (220 rpm) at their respective growth temperatures. Culture densities (OD600) were recorded using a Bio-Rad xMark microplate spectrophotometer after 16 hours for all strains except Bacillus, which were after 24 hours. Assays were performed in triplicated on separate independent days. […] Minimum inhibitory concentrations are from triplicate assays performed on separate days.
as §1

[5] = test system: Salmonella enterica LT2; experiment: Microbroth dilution MIC; assay type: cell-based
Experimental: as §3, §1

[6] = test system: Acinetobacter calcoaceticus ATCC 23055; experiment: Microbroth dilution MIC; assay type: cell-based
Experimental: as §3, §1

[7] = test system: Escherichia coli K12; experiment: Microbroth dilution MIC; assay type: cell-based
Experimental: as §3, §1

[8] = test system: Erwinia rhapontici KSJ3948; experiment: Microbroth dilution MIC; assay type: cell-based
Experimental: as §3, §1

[9] = test system: Enterobacter aerogenes CDC 1998-68; experiment: Microbroth dilution MIC; assay type: cell-based
Experimental: as §3, §1

[10] = test system: Staphylococcus aureus ATCC 23055; experiment: Microbroth dilution MIC; assay type: cell-based
Experimental: as §3, §1

[11] = test system: Citrobacter freundii ATCC 8090; experiment: Microbroth dilution MIC; assay type: cell-based
Experimental: as §3, §1

[12] = test system: Pseudomonas aeruginosa K; experiment: Microbroth dilution MIC; assay type: cell-based
Experimental: as §3, §1

[13] = test system: Bacillus subtilis ATCC 6633; experiment: Microbroth dilution MIC; assay type: cell-based
Experimental: as §3, §1

[14] = test system: Pseudomonas aeruginosa PA01; experiment: Microbroth dilution MIC; assay type: cell-based
Experimental: as §3, §1

[15] = test system: Pantoea ananatis LMG 20103; experiment: Microbroth dilution MIC; assay type: cell-based
Experimental: as §3, §1

[16] = test system: Bacillus megaterium ATCC 19213; experiment: Microbroth dilution MIC; assay type: cell-based
Experimental: as §3, §1

[17] = test system: Serratia marcescens NRRL B-2544; experiment: Microbroth dilution MIC; assay type: cell-based
Experimental: as §3, §1

[18] = test system: Escherichia coli WM6242 (Pn Uptake Induced); experiment: Microbroth dilution MIC, phosphonate uptake induced with 1 mM IPTG; assay type: cell-based
Experimental: as §2

[19] = test system: Pseudomonas syringae B278a; experiment: microbe, parasite or virus in culture; assay type: cell-based
Experimental: as §1

[20] = test system: Pseudomonas fluorescens Pf5; experiment: Microbroth dilution MIC; assay type: cell-based
Experimental: as §1

[21] = test system: Acidovroax delafieldii ATCC 17505; experiment: Microbroth dilution MIC; assay type: cell-based
Experimental: as §1

[22] = test system: Salmonella enterica ser. Tennessee E2007000304; experiment: Microbroth dilution MIC; assay type: cell-based
Experimental: as §1

[23] = test system: Pseudomonas medocina Palleroni ATCC 25411; experiment: Microbroth dilution MIC; assay type: cell-based; settings: ATCC25411
Experimental: as §1

[24] = test system: Acidovorax temperans ATCC 49665; experiment: Microbroth dilution MIC; assay type: cell-based; settings: ATCC49665
Experimental: as §1

[25] = test system: Acidovorax konjacii ATCC 33996; experiment: Microbroth dilution MIC; assay type: cell-based
Experimental: as §1

[26] = test system: Pseudomonas syringae pv. Tomato Max 14; experiment: Microbroth dilution MIC; assay type: cell-based
Experimental: as §1

[27] = test system: Acidovorax citrulli ATCC 29625; experiment: Microbroth dilution MIC; assay type: cell-based; settings: Paracidovorax citrulli, ATCC29625
Experimental: as §1

[28] = test system: Acidovorax avenae ATCC 19860; experiment: Microbroth dilution MIC; assay type: cell-based; settings: Paracidovorax avenae, ATCC19860
Experimental: as §1

Compound: CC(N)C(=O)NC(C)C(=O)NC(CP(=O)(O)O)C(=O)O (stereo not shown) [Compound 3]
- antifungal activity (in words) [1]: neither compound exhibited antifungal activity
- antibacterial activity (in words) [2]: strong inhibition
- MIC ([2]; NRRLB2605): 12.5 µM (≈ 3.89 µg/mL)
- antibacterial activity (in words) ([3]; Escherichia coli WM6242, encodes IPTG-inducible phosphonate uptake transporters): inactive
- MIC ([3]; Escherichia coli, WM6242): > 200 µM
- MIC ([4]; Rhodococcus jostii, RHA1): > 200 µM
- MIC ([4]; Table 13, Rhodococcus jostii RHA1, minimal media): >200 µM
- MIC ([5]; Salmonella enterica, LT2): 12.5 µM (≈ 3.89 µg/mL)
- antibacterial activity (in words) ([5]; Salmonella enterica, LT2): active
- MIC ([5]; Table 13, Salmonella enterica LT2, minimal media, ≥90% growth inhibition): 12.5 µM (≈ 3.89 µg/mL)
- MIC ([6]; Acinetobacter calcoaceticus, ATCC23055): > 200 µM
- MIC ([6]; Table 13, Acinetobacter calcoaceticus ATCC 23055, minimal media): >200 µM
- MIC ([7]; Escherichia coli, K12): 6.25 µM (≈ 1.95 µg/mL)
- antibacterial activity (in words) ([7]; Escherichia coli, K12): active
- MIC ([7]; Table 13, Escherichia coli K12, minimal media, ≥90% growth inhibition): 6.25 µM (≈ 1.95 µg/mL)
- antibacterial activity (in words) ([8]; Erwinia rhapontici): strong inhibition
- MIC ([8]; Erwinia rhapontici, KSJ3948): 6.25 µM (≈ 1.95 µg/mL)
- MIC ([8]; Table 13, Erwinia rhapontici KSJ3948, minimal media, ≥90% growth inhibition): 6.25 µM (≈ 1.95 µg/mL)
- MIC ([9]; Klebsiella aerogenes, CDC199868): > 200 µM
- MIC ([9]; Table 13, Enterobacter aerogenes CDC 1998-68, minimal media, ≥90% growth inhibition): >200 µM
- MIC ([10]; Staphylococcus aureus, ATCC23055): > 200 µM
- MIC ([10]; Table 13, Staphylococcus aureus ATCC 23055, minimal media): >200 µM
- MIC ([11]; Citrobacter freundii, ATCC8090): > 200 µM
- MIC ([11]; Table 13, Citrobacter freundii ATCC 8090, minimal media, ≥90% growth inhibition): >200 µM
- MIC ([12]; Pseudomonas aeruginosa): 25 µM (≈ 7.78 µg/mL)
- antibacterial activity (in words) ([12]; Pseudomonas aeruginosa K): active
- MIC ([12]; Table 13, Pseudomonas aeruginosa K, minimal media): 25 µM (≈ 7.78 µg/mL)
- antibacterial activity (in words) ([13]; B. subtilis): strong inhibition
- MIC ([13]; Bacillus subtilis, ATCC6633): 12.5 µM (≈ 3.89 µg/mL)
- MIC ([13]; Table 13, Bacillus subtilis ATCC 6633, minimal media): 12.5 µM (≈ 3.89 µg/mL)
- MIC ([14]; Pseudomonas aeruginosa, PA01): > 200 µM
- MIC ([14]; Table 13, Pseudomonas aeruginosa PA01, minimal media): >200 µM
- antibacterial activity (in words) ([15]; Pantoea ananatis): strong inhibition
- MIC ([15]; Pantoea ananatis, LMG20103): 3.12 µM (≈ 0.971 µg/mL)
- MIC ([15]; Table 13, Pantoea ananatis LMG 20103, minimal media, ≥90% growth inhibition): 3.12 µM (≈ 0.971 µg/mL)
- antibacterial activity (in words) ([16]; B. megaterium): strong inhibition
- MIC ([16]; Priestia megaterium, ATCC19213): 6.25 µM (≈ 1.95 µg/mL)
- MIC ([16]; Table 13, Bacillus megaterium ATCC 19213, minimal media): 6.25 µM (≈ 1.95 µg/mL)
- antibacterial activity (in words) ([17]; Serratia marcescens NRRL B-2544): active
- MIC ([17]; Serratia marcescens, NRRLB2544): 200 µM (≈ 62.2 µg/mL)
- MIC ([17]; Table 13, Serratia marcescens NRRL B-2544, minimal media): 200 µM (≈ 62.2 µg/mL)
- MIC [18]: > 200 µM
- MIC [19]: > 200 µM
- MIC [20]: > 200 µM
- MIC [21]: > 200 µM
- MIC [22]: > 200 µM
- MIC [23]: > 200 µM
- MIC [24]: > 200 µM
- MIC [25]: > 200 µM
- MIC [26]: > 200 µM
- MIC [27]: > 200 µM
- MIC [28]: > 200 µM
